Source: patent US11701406B2 (The Board of Trustees of the Leland Stanford Junior …, priority 2017, dated 2023)

System: hTregs (CD25+) vs hTeffs, STAT5 phosphorylation
Assay: STAT5 phosphorylation in Tregs vs Teffs / conventional CD4 T cells after IL-2
Assay type: cell-based, human
Conditions: low dose IL-2 (1 ng/ml), Treg vs Teff cells
Text: FIGS. 1A-1B. […] In mouse Tregs, GRAIL ubiquitinates the same lysine (724), that must be neddylated on cullin5 to allow ubiquitin ligase activity of the SOCS3 CRL. By competing for post-translational modification of cullin5, GRAIL inhibits SOCS3 CRL activity and prolongs pJAK1 activity, thus prolonging pSTAT5 transcriptional activity and Treg function. […] A western blot of cell extracts from Treg or Teff cells following contacting in vitro with a low dose of IL-2. The blots were stained with an antibody specific for phosphorylated STAT5.
In humans and in an animal model for SLE, it is shown that there is a defect in this pathway.

## IL-2: cytokine interleukin 2; signals regulatory CD4 T cells via the high affinity IL-2 receptor
  pSTAT5 response (western blot kinetics): prolonged pSTAT5 response by the Treg cells relative to the Teff cells
